The list shows a part of the results, in another mix than the full data. Active and inactive are the calls of the source.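 Rule for the calls: active = over half of replicate activation scores above 10%, or exactly half above 10 with the replicate mean above 10; inconclusive = replicate mean below 10 yet half the replicates above 10; inactive = over half of replicates below 10.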

The nature of the experiment: inducers of caspase signal in A1-primed MEFs – cell-based, luminescence, HTS, A1 inhibitor project, primary screen (AID 2462). Conditions: MEF A1-2A-BIM cells, Caspase-Glo 3/7 luminescence, 3 h; hits give high values; percent of clofoctol response, vehicle zero; concentration not given here.
As for `Cc1ccc2nc3c(c(C)c2c1)CC(C(Cl)Cl)S3` (stereo unspecified), the caspase activation is inactive: -0.398%.

As to `CP(=S)(Nn1cnnc1)Oc1ccccc1` (stereo unspecified), the caspase activation is inactive: -0.863%. The result for `CCOC(=O)Nc1cccc([As](=O)(O)O)c1` reads inactive: -0.765%; that for `COc1ccccc1OP(C)(=O)Nc1ccccc1` (stereo unspecified), inactive: 1.54%. Regarding `O=P(Nc1ccccn1)(c1cccc2ccccc12)c1cccc2ccccc12`, the caspase activation was inactive: 0.49%. On to `Cc1cc(SC(NC=O)C(Cl)(Cl)Cl)ncn1` (stereo unspecified), for which the caspase activation is inactive: 0.147%. With `O=[N+]([O-])c1ccc(Nc2ccc(Oc3ccc([N+](=O)[O-])cc3[N+](=O)[O-])cc2)c([N+](=O)[O-])c1`, the caspase activation was inactive: 0.787%.

Regarding `CP(=O)(Nc1ccccc1Br)Oc1ccccc1` (stereo unspecified), the caspase activation was inactive: 0.364%. The figure for `CCOC(=O)Nc1ccc([As](=O)(O)O)c(O)c1` is inactive: -0.36%. Regarding `Cc1cc(SC(NC(=O)c2ccccc2)C(Cl)(Cl)Cl)nc(C(C)C)n1` (stereo unspecified), the caspase activation was inactive: 0.439%.

Take `O=C(OC1CN2CCC1CC2)c1cccc([N+](=O)[O-])c1` (stereo unspecified): the caspase activation is inactive: 1.16%. Turning to `CCOP(C)(=S)SCC(=O)NC(C)C(=O)O` (stereo unspecified), the caspase activation was inactive: 0.124%. The figure for `CCOC(=O)c1ccc(NC(=O)C(C)(CCl)SC)cc1` (stereo unspecified) is inactive: -1.56%; for `CCOC(=O)c1ccc(NP(C)(=O)Oc2ccc(OC)cc2)cc1` (stereo unspecified) it is inactive: -0.484%; for `O=[N+]([O-])c1cc([N+](=O)[O-])c(O)c([N+](=O)[O-])c1.c1ccc(Oc2ccncc2)cc1` it is inactive: -0.00869%.

On to `CCC(C)N(CC(C)C)C(=S)SC(NC(C)=O)C(Cl)(Cl)Cl` (stereo unspecified), for which the caspase activation was inactive: 0.0449%. With `CP(=O)(Nc1ccccn1)Oc1ccc(Cl)cc1` (stereo unspecified), the caspase activation is inactive: 0.135%.

Regarding `CP(=O)(Oc1ccccc1)OC(c1ccccc1)C(F)(F)F` (stereo unspecified), the caspase activation was inactive: -0.161%. In the case of `COP1(=S)c2c(C)nn(CCC#N)c2N=C(c2ccc(F)cc2)N1C` (stereo unspecified), the caspase activation was inactive: -0.0163%.

Turning to `Cc1cccc(C)c1OP(C)(=O)Nc1ccc(SC(F)(F)F)cc1` (stereo unspecified), the caspase activation was inactive: -0.183%.

With `CP(=O)(Nc1ccc(SC(F)(F)F)cc1)Oc1ccc(Cl)cc1` (stereo unspecified), the caspase activation was inactive: 0.871%. As for `O=C(Nc1ccncc1[N+](=O)[O-])c1ccc([N+](=O)[O-])cc1[N+](=O)[O-]`, the caspase activation was inactive: -1.42%. The figure for `Cc1cc(C)cc(OP(C)(=O)Nc2ccc(SC(F)(F)F)cc2)c1` (stereo unspecified) is inactive: 0.735%. Regarding `O=C(COc1ccccc1)OC1CN2CCC1CC2` (stereo unspecified), the caspase activation was inactive: 0.43%. The result for `CP(=O)(NC(=O)Nc1ccccc1)Oc1ccccc1` (stereo unspecified) reads inactive: 0.0866%. As to `CCc1ccc(OP(C)(=O)N2CCN(c3ccc([N+](=O)[O-])cc3)CC2)cc1` (stereo unspecified), the caspase activation is inactive: -0.452%. With `CP(=O)(Nc1ccc(Cl)cc1)Oc1ccc(F)cc1` (stereo unspecified), the caspase activation was inactive: 0.63%. Take `CCN(/C(=N/P(=O)(N1CCOCC1)N1CCOCC1)N1CCOCC1)c1ccc(OC)cc1`: the caspase activation was inactive: 0.81%. For `C[N+]1=C2C=CC=CC=C2SC12C([N+](=O)[O-])=CC([N+](=O)[O-])=C[C-]2[N+](=O)[O-]` (stereo unspecified), the caspase activation was inactive: -0.334%. Turning to `COc1ccccc1OP(C)(=O)Nc1ccccc1Br` (stereo unspecified), the caspase activation is inactive: 0.375%. `CC(C)(C)c1ccc(OP(C)(=O)O)cc1`: the caspase activation was inactive: -0.797%. The result for `Nc1ccc([As](=O)(O)c2ccc(N)cc2)cc1` reads inactive: -0.483%; that for `CC1CCN(C(=O)Oc2c(Cl)cc(Cl)c3cccnc23)CC1`, inactive: 0.868%; that for `CN(C)C(=O)OCCc1n(C)cc[n+]1C`, inactive: 1.69%. Regarding `CN(C)C(=O)c1c([N+](=O)[O-])cc([N+](=O)[O-])cc1[N+](=O)[O-]`, the caspase activation is inactive: 0.416%.

With `CC(C)=N/N=C(\N)N[N+](=O)[O-]`, the caspase activation was inactive: 0.236%. As for `COc1ccc(OP(C)(=O)Nc2ccc(Br)cc2)cc1` (stereo unspecified), the caspase activation was inactive: 0.35%. In the case of `COc1ccc(C2=NCC(CBr)S2)cc1` (stereo unspecified), the caspase activation is inactive: 0.0234%.

On to `CCN(CC)CC(O)COC(=O)C(O)(c1ccccc1)C1CCCCC1` (stereo unspecified), for which the caspase activation is inactive: 0.189%. With `CCc1ccc(OP(C)(=O)Nc2cccnc2)cc1` (stereo unspecified), the caspase activation is inactive: 0.418%. The result for `CCc1nc2c(n1)c1c(non1O)c1c2no[n+]1[O-]` reads inactive: -1.19%; that for `O=[N+]([O-])c1cc([N+](=O)[O-])c(CCNc2ccccc2)c([N+](=O)[O-])c1`, inactive: -1.18%; that for `CP(=O)(Oc1ccccc1)N1CCOC1=O` (stereo unspecified), inactive: 0.795%.

For `Cc1ccc(NP(=O)(Oc2ccccc2)Oc2ccccc2)nc1`, the caspase activation was inactive: -0.726%. As to `O=C(OCCCN1CCCC1)C(O)(c1ccccc1)C1CCCCC1` (stereo unspecified), the caspase activation is inactive: -0.883%.

With `O=[N+]([O-])c1cccc2n[nH]nc12`, the caspase activation is inactive: 0.584%. Consider `CC(=O)N1C2C3N(C(C)=O)C1C1N(C(C)=O)C(C(N1C(C)=O)N3C(C)=O)N2C(C)=O`, for which the caspase activation was inactive: 0.131%. In the case of `COc1ccccc1OP(C)(=O)Nc1c(C)n(C)n(-c2ccccc2)c1=O` (stereo unspecified), the caspase activation was inactive: 1.39%.

Consider `O=[N+]([O-])c1ncn(CCn2ncnc2[N+](=O)[O-])n1`, for which the caspase activation is inactive: 1.66%.

`CC(C)(C)C(=O)NC(Sc1ccncn1)C(Cl)(Cl)Cl` (stereo unspecified): the caspase activation was inactive: 0.89%.

As to `O=C(O)CNc1ccc([As](=O)(O)O)cc1`, the caspase activation was inactive: 0.936%. The figure for `O=[N+]([O-])c1cccc(NC2=NCC(CBr)S2)c1` (stereo unspecified) is inactive: -0.884%; for `Nc1ccc2c(ccc3cccnc32)n1.O=[N+]([O-])c1cc([N+](=O)[O-])c(O)c([N+](=O)[O-])c1` it is inactive: 0.0257%; for `CP(=O)(OC12CC3CC(CC(C3)C1)C2)OC12CC3CC(CC(C3)C1)C2` it is inactive: 0.734%.

In the case of `O=C(Nc1cc([As](=O)(O)O)ccc1O)c1ccccc1`, the caspase activation is inactive: 0.597%. With `CCOC(=O)c1ccc(NP(C)(=O)Oc2ccc(Cl)cc2)cc1` (stereo unspecified), the caspase activation is inactive: 0.493%. Regarding `O=[N+]([O-])c1cc([N+](=O)[O-])c(CCN2CCOCC2)c([N+](=O)[O-])c1`, the caspase activation is inactive: 2%. As to `CP(=O)(Nc1ccc(Cl)cc1Cl)Oc1ccccc1` (stereo unspecified), the caspase activation was inactive: 1.01%. For `CP(=O)(OCCOc1ccccc1)OCCOc1ccccc1`, the caspase activation is inactive: -0.33%. For the molecule `Nc1cccc2ccc([As](=O)(O)O)cc12`, the caspase activation was inactive: -0.88%. Take `CCN(N=Nc1nonc1N)c1nonc1N`: the caspase activation was inactive: 0.417%.

The values above are taken from PubChem BioAssay AID2462 (Broad Institute, 2010).
